Experimental data taken from patent US7923230 (Stanford University, dated 2011).

Molecular target: Amyloid beta (1-42)
Test: cell-based or functional assay

B1: FKBP12 pre-incubated with the bifunctional compound SLF-CR (SLF-Congo red) (enzyme)
chain: not shown
  EC50 for preventing Aβ neurotoxicity, MTT assay on rat hippocampal neurons (drug concentration): 900 nM
  IC50 in thioflavin T aggregation assay, fold lower than CR/FKBP: ~5 fold
  IC50 of SLF-CR (with 1 uM FKBP) for delaying Aβ aggregation, turbidity / light scattering: 430 nM
